# The entries are a selection whose mix differs from that of the whole data set. Some results for these compounds are left out of this collection, so the calls shown say nothing about other tests. Active and inactive are the calls of the source.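 Rule for the calls: active = inhibition above its plate's cutoff, the mean inhibition of sample wells plus 3 SD (cut at about 27% in these data); inactive = the rest.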
# The chains behind the UniProt entries cited, without tags or fusion partners.
# UniProt P08173, whole entry: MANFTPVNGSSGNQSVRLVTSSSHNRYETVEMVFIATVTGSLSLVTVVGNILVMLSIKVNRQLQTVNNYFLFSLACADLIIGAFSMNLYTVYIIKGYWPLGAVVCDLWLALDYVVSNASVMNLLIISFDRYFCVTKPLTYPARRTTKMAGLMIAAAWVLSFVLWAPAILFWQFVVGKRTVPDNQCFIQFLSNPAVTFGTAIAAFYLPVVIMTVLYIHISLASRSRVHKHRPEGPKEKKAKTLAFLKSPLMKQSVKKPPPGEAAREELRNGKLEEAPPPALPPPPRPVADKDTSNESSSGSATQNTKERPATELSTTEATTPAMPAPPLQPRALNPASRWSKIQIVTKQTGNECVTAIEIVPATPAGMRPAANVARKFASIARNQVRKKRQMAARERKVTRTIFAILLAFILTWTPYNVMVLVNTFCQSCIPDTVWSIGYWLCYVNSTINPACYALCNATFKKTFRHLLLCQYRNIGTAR
# Biological target: Muscarinic acetylcholine receptor M4 (Homo sapiens) (UniProt P08173)
# Test: CHRM4 blockers of acetylcholine calcium response – CHO cells, Fluo-8 calcium fluorescence, primary screen (AID 624125);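 note: 0% = acetylcholine EC80 with DMSO and 100% = DMSO without agonist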
# Conditions: CHO-hM4 cells, ACh EC80, Fluo-8 calcium fluorescence; at 3 µM; hits give high values
row,SMILES,inhibition
1,O=C(NCC1(N2CCCCC2)CCCCC1)c1cccc(Cl)c1,inactive: -6.89%
2,COc1ccc(Cl)cc1C(=O)NCC1(N(C)C)CCCCC1,inactive: 3.88%
3,COc1cccc(C(=O)NCC2(N3CCCCC3)CCCCC2)c1,inactive: -5.95%
4,COc1cc(C(=O)NCC2(N(C)C)CCCCC2)c([N+](=O)[O-])cc1OC,inactive: -9.12%
5,CN(C)C1(CNC(=O)c2ccc(Br)cc2)CCCCC1,inactive: -2.18%
6,CN(C)c1cccc(C(=O)NCC2(N(C)C)CCCCC2)c1,inactive: 6.14%
7,CC(C)Oc1ccc(C(=O)NCC2(N(C)C)CCCCC2)cc1,inactive: -2.64%
8,COc1ccc(Br)c(C(=O)NCC2(N3CCCCC3)CCCCC2)c1,inactive: -6.85%
9,Cc1ccc(C(=O)NCC2(N3CCCCC3)CCCCC2)cc1,inactive: 5.54%
10,CC(C)N1C(=O)CC2(CCN(CCOC(=O)C(O)(c3ccccc3)c3ccccc3)CC2)C1=O,inactive: 5.27%
11,COc1cc(SC)ccc1C(=O)NCC1(N(C)C)CCCCC1,inactive: -1.48%
12,O=C(NCC1(N2CCCCC2)CCCCC1)c1cc([N+](=O)[O-])ccc1Cl,inactive: -5.72%
13,O=C(NCC1(N2CCCCC2)CCCCC1)c1cccc(Br)c1,inactive: -5.41%
14,Cc1cc(C(=O)NCC2(N3CCCCC3)CCCCC2)ccc1[N+](=O)[O-],inactive: 1.68%
15,COc1ccc(C(=O)NCC2(N(C)C)CCCCC2)cc1,inactive: -2.37%
16,O=C(NCC1(N2CCCCC2)CCCCC1)c1cc(F)c(F)cc1Cl,inactive: 4.26%
17,C=CCN1CCN(CCOC(=O)C(O)(c2ccccc2)c2ccccc2)CC1,inactive: 23.9%
18,CN(C)c1ccc(C(=O)NCC2(N(C)C)CCCCC2)cc1,inactive: -9.71%
19,Cc1ccccc1C(=O)NCC1(N2CCCCC2)CCCCC1,inactive: -0.08%

# Source: PubChem BioAssay AID624125 (The Scripps Research Institute Molecular Screening Center, 2012)
